From BindingDB's records for patent US20250127800 (Signet Therapeutics, 2025) come the findings set out here.

Protein sequences, listed by entry. Tags and fused reporters are not part of them.
UniProt Q05397, whole entry: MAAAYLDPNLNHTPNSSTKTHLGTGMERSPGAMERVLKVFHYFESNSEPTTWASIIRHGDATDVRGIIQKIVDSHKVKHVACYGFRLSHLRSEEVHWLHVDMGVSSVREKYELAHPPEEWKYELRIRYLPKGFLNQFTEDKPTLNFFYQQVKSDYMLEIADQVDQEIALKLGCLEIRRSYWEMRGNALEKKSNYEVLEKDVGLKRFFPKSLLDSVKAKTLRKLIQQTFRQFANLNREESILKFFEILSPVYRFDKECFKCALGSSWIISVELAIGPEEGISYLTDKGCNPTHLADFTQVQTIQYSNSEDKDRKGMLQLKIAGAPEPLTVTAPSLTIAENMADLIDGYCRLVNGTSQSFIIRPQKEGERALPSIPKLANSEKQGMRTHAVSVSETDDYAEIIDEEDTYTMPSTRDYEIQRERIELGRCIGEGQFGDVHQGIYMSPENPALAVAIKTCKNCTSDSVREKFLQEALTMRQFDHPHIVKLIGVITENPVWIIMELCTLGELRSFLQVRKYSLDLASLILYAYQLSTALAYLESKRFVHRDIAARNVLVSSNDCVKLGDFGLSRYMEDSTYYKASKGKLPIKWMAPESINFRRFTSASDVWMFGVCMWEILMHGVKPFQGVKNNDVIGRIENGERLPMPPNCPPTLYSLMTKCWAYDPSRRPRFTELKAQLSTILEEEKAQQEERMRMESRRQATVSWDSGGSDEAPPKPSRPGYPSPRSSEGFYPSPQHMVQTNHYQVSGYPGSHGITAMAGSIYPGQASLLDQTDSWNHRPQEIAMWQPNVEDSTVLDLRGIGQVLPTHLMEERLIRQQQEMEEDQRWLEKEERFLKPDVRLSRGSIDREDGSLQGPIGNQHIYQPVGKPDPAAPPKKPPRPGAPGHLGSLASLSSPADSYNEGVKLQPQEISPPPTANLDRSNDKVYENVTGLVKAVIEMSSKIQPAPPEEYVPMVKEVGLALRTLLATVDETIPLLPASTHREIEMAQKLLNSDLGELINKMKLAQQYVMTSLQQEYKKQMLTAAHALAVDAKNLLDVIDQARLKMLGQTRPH

A word on the IC50: it is the concentration that inhibits the measured activity by half. A higher IC50 goes with weaker potency.

Each structure is given as a SMILES string.

The target in the assay is Focal adhesion kinase 1 (Homo sapiens, UniProt Q05397). The experiment in a line: In Vitro Enzymatic Inhibitory Activity Assay.

In the case of `C=CC(=O)N1CCC(CNC(=O)c2ccc(Nc3ncc(C(F)(F)F)c(NCc4nccnc4N(C)S(C)(=O)=O)n3)c(OC)c2)CC1` [US20250127800, Example 4], the IC50 stood at 1.32 nM.
